The results in this text go back to article PMC3361975.

One data set relates to O=[PH](O)O. The experiment in a line: purified protein. To be noted: 100 mM MOPS pH 7.25, 25 °C.
In data set [1] the test system is NC(=O)c1ccc[n+]([C@@H]2O[C@H](COP(=O)(O)OP(=O)(O)OC[C@H]3O[C@@H](n4cnc5c(N)ncnc54)[C@H](O)[C@@H]3O)[C@@H](O)[C@H]2O)c1. Nature of the data set: purified protein. As to conditions: phosphite and NAD+ varied, 100 mM MOPS pH 7.25, 25 °C.

Turning to “17X-PTDH (Stutzerimonas stutzeri; A319E/A325V/C336D/D13E/E130K/E175A/E332N/I150F/I313L/L276Q/M26I/Q132R/Q137R/Q215L/R275Q/R301K/V315A/V71I)”, in the data set on O=[PH](O)O (phosphite and NAD+ varied), the Km was 1.11 (0.12) mM, the kcat is listed as 4.50 (0.72) s^-1 and the kcat/Km (usually the turnover number divided by the Michaelis constant) came out at 4050 M⁻¹ s⁻¹. In addition, the kcat in data set [1] is on record as 4.50 (0.72) s^-1.

In the case of “17X-PTDH (Stutzerimonas stutzeri; A319E/A325V/C336D/D13E/E130K/E175A/E332N/I150F/I313L/L276Q/M26I/Q132R/Q137R/Q215L/R275Q/V315A/V71I)”, in the data set on O=[PH](O)O (phosphite and NAD+ varied), the Km is on record as 0.028 (0.007) mM, the kcat is given as 3.27 (0.24) s^-1 and the kcat/Km came out at 117000 M⁻¹ s⁻¹. Further, the kcat in data set [1] is recorded as 3.27 (0.24) s^-1.

Take “17X-PTDH (Stutzerimonas stutzeri; A319E/A325V/C336D/D13E/E130K/E175A/E332N/I150F/I313L/L276Q/M26I/Q132R/Q137R/Q215L/R275Q/R301A/V315A/V71I)”: in the data set with O=[PH](O)O (phosphite and NAD+ varied), the Km is reported as 19.4 (1.22) mM, the kcat is 0.041 (0.007) s^-1 and the catalytic efficiency (kcat/Km) was 2.11 M⁻¹ s⁻¹. Moreover, the kcat in data set [1] is 0.041 (0.007) s^-1.

Turning to “17X-PTDH (Stutzerimonas stutzeri; A319E/A325V/C336D/D13E/E130K/E175A/E332N/I150F/I313L/L276Q/M26I/Q132R/Q137R/Q215L/R275Q/V315A/V71I/W134A)”, in the data set on O=[PH](O)O (NAD+ saturating 4 mM), the Km was 1.91 (0.11) mM, the kcat is on record as 1.73 (0.14) s^-1 and the kcat/Km was 901 M⁻¹ s⁻¹.
